Measured values taken from US6908931B2, “Tetrahydroisoquinoline derivatives as melatonin MT2 antagonists” (Bristol-Myers Squibb Company, priority 2003, dated 2005).

Sequences of proteins named here, by UniProt entry; tags and fusion partners are left off.
UniProt P49286, whole entry: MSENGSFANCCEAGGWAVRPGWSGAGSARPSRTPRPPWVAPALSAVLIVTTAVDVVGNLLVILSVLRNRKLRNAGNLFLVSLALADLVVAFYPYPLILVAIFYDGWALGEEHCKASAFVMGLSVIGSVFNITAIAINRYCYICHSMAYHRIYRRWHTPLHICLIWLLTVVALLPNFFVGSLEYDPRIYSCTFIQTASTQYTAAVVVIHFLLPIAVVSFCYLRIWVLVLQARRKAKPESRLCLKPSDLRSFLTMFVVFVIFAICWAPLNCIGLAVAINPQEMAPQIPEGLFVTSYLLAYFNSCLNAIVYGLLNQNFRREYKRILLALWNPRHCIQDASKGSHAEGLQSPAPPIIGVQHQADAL

Molecular target: human MT2 receptor (Homo sapiens, UniProt P49286)
Test: Melatonin receptor binding assay (MT2), 2-[125I]-iodomelatonin
Conditions: read-out: MT2 IC50; membrane homogenates of NIH-3T3 cells expressing MT2; 2-[125I]-iodomelatonin 0.2 nM; 37° C., 1 hour

Structure (SMILES)	IC50 [nM]
CCC(=O)N1CCc2cc3c(cc2C1CC(c1ccccc1)c1ccccc1)OCO3 (stereo not shown)	100 to 1000
COc1ccc(C(=O)N2CCc3cc4c(cc3C2CCc2ccc(F)cc2)OCC4)cc1 (stereo not shown)	100 to 1000
CC(=O)N1CCc2c(ccc3c2CCO3)C1CC(c1ccccc1)c1ccccc1 (stereo not shown)	100 to 1000
O=C(c1ccccc1)N1CCc2cc3c(cc2C1CCc1ccc(F)cc1)OCC3 (stereo not shown)	100 to 1000
COC(=O)N1CCc2cc3c(cc2C1CCc1ccc(F)cc1)OCO3 (stereo not shown)	100 to 1000
COc1cc2c(cc1OC)C(CCc1cccc3c1CCO3)N(C(C)=O)CC2 (stereo not shown)	< 100
COc1cc2c(cc1Br)CCN(C(C)=O)C2CC(c1ccccc1)c1ccccc1 (stereo not shown) [Example 22]	< 100
O=C(c1ccno1)N1CCc2cc3c(cc2C1CCc1ccc(F)cc1)OCC3 (stereo not shown)	100 to 1000

Other lines, results leading:

IC50 [nM]	Structure (SMILES)
< 100	CC(=O)N1CCc2cc3c(cc2C1CCc1ccc(F)cc1)OCC3 (stereo not shown)
< 100	O=C(CCl)N1CCc2cc3c(cc2C1CCc1ccc(F)cc1)OCC3 (stereo not shown)
< 100	CC(C)(C)CC(=O)N1CCc2cc3c(cc2C1CCc1ccc(F)cc1)OCC3 (stereo not shown)
< 100	COCC(=O)N1CCc2cc3c(cc2C1CCc1ccc(F)cc1)OCC3 (stereo not shown)
100 to 1000	O=C(C1CCCC1)N1CCc2cc3c(cc2C1CCc1ccc(F)cc1)OCC3 (stereo not shown)
< 100	CCC(=O)N1CCc2cc3c(cc2C1CCc1ccc(F)cc1)OCC3 (stereo not shown)
< 100	O=C(C1CC1)N1CCc2cc3c(cc2C1CCc1ccc(F)cc1)OCC3 (stereo not shown)
< 100	CCCC(=O)N1CCc2cc3c(cc2C1CCc1ccc(F)cc1)OCC3 (stereo not shown)
